Test results: patent US8088761B2, “Enzyme inhibitors” (Cancer Research Technology Limited, priority 2005, dated 2012)

Molecular target: T1, Aurora-A (Homo sapiens, UniProt O14965)
T1 sequence (O14965 1-403): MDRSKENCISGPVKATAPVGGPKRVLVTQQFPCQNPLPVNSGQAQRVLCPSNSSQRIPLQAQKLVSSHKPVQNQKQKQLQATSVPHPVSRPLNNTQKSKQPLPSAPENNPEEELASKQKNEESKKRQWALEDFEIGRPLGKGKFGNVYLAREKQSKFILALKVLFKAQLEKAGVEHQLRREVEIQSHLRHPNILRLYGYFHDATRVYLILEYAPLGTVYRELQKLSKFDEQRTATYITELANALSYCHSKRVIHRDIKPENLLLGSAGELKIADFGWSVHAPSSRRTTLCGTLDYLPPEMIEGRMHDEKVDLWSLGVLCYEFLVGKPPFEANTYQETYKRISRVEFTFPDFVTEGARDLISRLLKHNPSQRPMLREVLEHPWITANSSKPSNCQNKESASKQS
Test: Flashplate Aurora A enzyme inhibition assay
Assay type: biochemical
Experimental: Flashplate® Assay for Identification and Evaluation of Aurora-A Inhibitors
On this assay 384-well Basic Flashplate® (SMP400E, PerkinElmer) as solid assay platform was used. The plates were coated overnight at 4° C. with […] at 100 μg/ml in PBS buffer and used after being washed twice with PBS. 5 μl of compound in 2% DMSO was added to each well followed by 15 μl master mix of kinase buffer (50 mM Tris pH 7.5, 10 mM NaCl, 2.5 mM MgCl2, 1 mM […], 20 μM ATP, and 0.025 μCi/μl ^33P-ATP). Finally, 250 ng per well of Aurora-A enzyme was added. The plate was shaken for approximately 2 min on a flat-bed plate shaker (Wellmix, Denley, UK) and incubated for 2 hours at room temperature. The reaction was stopped by washing the plate twice on a 16-pin wash (ELX50 BioTek Instruments Ltd., Northstar, Bedford, UK) with 10 mM sodium pyrophosphate. The plate was then read on a TopCount-NX™ (PerkinElmer Life Sciences UK Ltd., Hounslow, UK).

Q: For COc1ccc(-c2nc3c(N4CCN(Cc5ccc(Cl)cc5)CC4)c(Br)cnc3[nH]2)cc1 [Example 72, 6-Bromo-7-[4-(4-chloro-benzyl)-piperazin-1-yl]-2-(4-methoxy-phenyl)-3H-imidazo[4,5-b]pyridine], which IC50 is on record?
A: < 0.5 µM
